Values quoted from earlier work, collected in patent US6011000A, “Compositions for the treatment of blood disorders” (priority 1995, dated 2000).

System: fetal globin synthesis in tissue culture cells
Settings: cited from earlier work

B1: IL3: interleukin-3 (IL3) (protein, UniProt P08700 20-152, looked up)
Interleukin-3: APMTQTTPLKTSWVNCSNMIDEIITHLKQPPLPLLDFNNLNGEDQDILMENNLRRPNLEAFNRAVKSLQNASAIESILKNLLPCLPLATAAPTRHPIHIKDGDWNEFRRKLTFYLKTLENAQAQQTTLSLAIF
For B1, the fetal globin synthesis is given as “increase fetal globin synthesis in tissue culture cells”.
